{
  "source": "ChEMBL document CHEMBL3585273",
  "about": "“Discovery of Tricyclic Clerodane Diterpenes as Sarco/Endoplasmic Reticulum Ca(2+)-ATPase Inhibitors and Structure-Activity Relationships” (J Nat Prod, 2015)",
  "target": "Sodium/potassium-transporting ATPase subunit alpha-2/alpha-3 (Rattus norvegicus, UniProt P06686+P06687)",
  "test": "Inhibition of Wistar rat brain Na+,K+-ATPase alpha2/3 after 2 hrs",
  "data": [
    {"sequence": "IVERMECTIN", "values": [
      {"measurement": "IC50", "result": 6.48, "unit": "µM"}
    ]}
  ]
}
